{"source": "patent US6140509A", "about": "(dated 2000)", "key": {"[1]": {"tested_on": "5HT2A receptors (cerebral cortex)", "test": "I125-LSD displacement from brain sections, cortex (autoradiography)", "type": "binding, Sprague-Dawley rats", "conditions": "1 micromolar compound, 1 nanomolar I125-LSD, 30 minutes, room temperature"}, "[2]": {"tested_on": "dopamine D2 receptors (caudate nucleus)", "test": "I125-LSD displacement from brain sections, caudate nucleus (autoradiography)", "type": "binding, Sprague-Dawley rats", "conditions": "1 micromolar compound, 1 nanomolar I125-LSD, 30 minutes, room temperature"}}}
{"compound": "O=C(CCCN1CCC2(CC1)C(=O)NCN2c1ccccc1)c1ccc(F)cc1", "note": "[spiperone]", "values": [{"measurement": "displacement of I125-LSD from cortex (5HT2A)", "setting": "[1]", "value": "displaces the I^125 -LSD from these receptors on both the cortex and the caudate"}, {"measurement": "displacement of I125-LSD from caudate (dopamine D2)", "setting": "[2]", "value": "displaces the I^125 -LSD from these receptors on both the cortex and the caudate"}]}
